Assay results reported in patent US9409952B2, “Peptide-compound cyclization method” (Chugai Seiyaku Kabushiki Kaisha, priority 2011, dated 2016).

Experiment: Metabolic stability in human hepatic microsome
Type: in vitro ADME
Conditions: microsomes, pH 7.4, NADPH(+), read-out: CL NADPH(+)

- microsomal CLint at 1 uM: 91 µL/min/mg
Structure (SMILES): CC(C)C[C@H]1C(=O)NCC(=O)N[C@H](C(=O)N2CCCCC2)CC(=O)NC(C)(C)C(=O)N[C@@H]([C@@H](C)O)C(=O)N(C)[C@@H](C)C(=O)N(C)[C@@H](Cc2ccccc2)C(=O)N(C)[C@@H](Cc2ccccc2)C(=O)N[C@@H](COC(C)(C)C)C(=O)N1C [DP-562]
